The nature of the series: Preliminary evaluation of in vivo safety (acute and general toxicity test). As to conditions: mouse.

In the case of `COC[C@@H](NC(=O)C1CCCC(F)(F)C1)C(=O)N[C@H](Cc1ccccc1)C(=O)C(=O)NCc1nccs1` (stereo partly drawn) [Compound 398, N—((R)-1-(((R)-3,4-dioxo-1-phenyl-4-((thiazole-2-ylmethyl)amino)butan-2-yl)amino)-3-methoxy-1-oxopropan-2-yl)-3,3-difluorocyclohexane-1-formamide], the “in vivo safety (in words)” value is recorded as “good in vivo safety”.

The values above are taken from patent publication US20250064789A1, “KETOAMIDE DERIVATIVES AND PHARMACEUTICAL USES THEREOF” (priority 2022, published 2025).
